## scFv variants of Ab-14 (light chain) against a SARS-CoV-2 spike peptide

The target is the same throughout: PDVDLGDISGINAS, from the HR2 region of SARS-CoV-2 spike.

Ab-14 is the parent antibody, in scFv form: VH, then three GGGGS repeats, then VL. The heavy chain is unchanged in all variants.
VH: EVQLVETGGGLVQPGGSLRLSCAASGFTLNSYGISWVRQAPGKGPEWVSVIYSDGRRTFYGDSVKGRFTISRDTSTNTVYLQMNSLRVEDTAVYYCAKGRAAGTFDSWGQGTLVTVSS
VL: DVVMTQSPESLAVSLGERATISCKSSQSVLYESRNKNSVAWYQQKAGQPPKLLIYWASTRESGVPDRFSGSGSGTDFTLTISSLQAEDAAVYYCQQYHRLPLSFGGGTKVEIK

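Phage display of a naive human antibody library on the peptide gave the parent. These sequences belong to a second round, designed from the earlier measurements on random variants of the parent. Group labels follow the data file (Ctrl: baseline library sampled from a position-specific scoring matrix, with some repeated check sequences; Rand: our label for a block that the file lists under HC and that is probably the random mutants of the ten best first-round binders; GP: Gaussian process model; HC: hill climbing; Gen: genetic algorithm; Gibbs: Gibbs sampling; a sequence that several methods proposed may carry one label only). In AlphaSeq, yeast of one mating type display the scFv and yeast of the other type display the target. The frequency of each diploid, read from paired DNA barcodes, reflects how well the two displayed proteins bind. A regression on co-assayed BCL2-family reference pairs converts the normalised counts of each replicate to an apparent Kd. The assay was run in six technical replicates.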

Substitutions are numbered in sequence along the VL above, starting at 1 (not Kabat).
This list holds designs with at most six substitutions.
Kd is apparent (estimated from mating counts) and averaged on the log scale over replicates with a signal. Smaller is tighter.
Where no diploid with the target was found in any replicate, the entry reads "nd": below detection, most likely a poor binder, though not proof of it.
Of ten entries with the parent sequence, four were seen in most replicates (averages 2.2 nM to 240 nM), three in one and three in none, so single entries are noisy.
As a blank, each scFv also met three strains without target: over all light chain designs, 4% of these pairings were detected, typically at 430 nM and seldom below 38 nM.
A sequence measured in both rounds can read differently, since the two assays cover different ranges.
The authors' rule: three or more of the six replicates give a measured affinity, fewer mean a poor binder.

* S25A+S26E+E32P+W56Q [Ctrl] -> 3.9 nM (6 of 6 replicates)
* N35F+A57G+R99V+L100M [Ctrl] -> nd (0 of 6 replicates)
* S25V+L30P+S33Q+W56N [GP_Gen] -> 500 pM (6 of 6 replicates)
* Y31M+T59V+R99Y+L100C [Ctrl] -> 66 nM (1 of 6 replicates)
* S25L+S26M+V29E+W56N+T59Q+E61M [GP_Gen] -> 1.1 nM (6 of 6 replicates)
* S25V+Q27I+V29Y+Y31L+W56E+S62V [GP_HC] -> 530 pM (6 of 6 replicates)
* S25N+W56A+S62K [Ctrl] -> 3.5 nM (6 of 6 replicates)
* W56G+L100I [Ctrl] -> 190 nM (4 of 6 replicates)
* S25W+V29Q+W56N+T59Q [GP_Gen] -> nd (0 of 6 replicates)
* S25L+Q27I+V29Y+Y31G+W56E [GP_HC] -> 1.3 nM (6 of 6 replicates)
* K24I+Y31D+W56D [Rand] -> 1.3 nM (6 of 6 replicates)
* S25M+S26L+V29N+W56N+E61M+S62W [GP_Gibbs] -> 1.2 nM (6 of 6 replicates)
* K24H+S25L+W56Q [GP_Gen] -> 720 pM (6 of 6 replicates)
* S25Q+W56D+Y97T [Rand] -> 1.1 nM (6 of 6 replicates)
* S25L+S26R+V29T+K36P [GP_HC] -> 31 nM (6 of 6 replicates)
* S25V+S26R+S28G+V29T+W56Y [GP_HC] -> 2.9 nM (6 of 6 replicates)
* S25L+L30W+N35L+W56E+S62Y+S103A [GP_Gibbs] -> 1.5 nM (6 of 6 replicates)
* S25N+Y31F+E32Q+W56D [GP_HC] -> 420 pM (6 of 6 replicates)
* R34T+T59I+S62Y+Y97V+L102R [Ctrl] -> nd (0 of 6 replicates)
* S25V+K36S+W56E [GP_Gen] -> 600 pM (6 of 6 replicates)
* K24N+S25A+V29W+W56G+A57G+S58N [GP_HC] -> 120 pM (6 of 6 replicates)
* Y31D+S33D+T59M+S62N+Q96D [Ctrl] -> 140 nM (2 of 6 replicates)
* S25L+V29M+W56N+T59Y [GP_Gen] -> 1.9 nM (6 of 6 replicates)
* S25V+S26Q+W56E+E61S [GP_Gen] -> 1.3 nM (6 of 6 replicates)
* S25L+W56D+A57G [GP_Gen] -> 3.3 nM (6 of 6 replicates)
* S25L+V29N+W56N+Q96D [GP_Gen] -> 990 pM (6 of 6 replicates)
* V29F+W56G+Q96A+P101T [GP_HC] -> 22 nM (6 of 6 replicates)
* S25L+S26R+Q27M+V29T+W56Q [GP_HC] -> 1.0 nM (6 of 6 replicates)
* S25L+S26E+L30H+W56N [GP_HC] -> 740 pM (6 of 6 replicates)
* S25L+S26E+W56N+S62Q [GP_Gen] -> nd (0 of 6 replicates)
* S25E+V29W+L30I+W56G [Rand] -> 1.4 nM (6 of 6 replicates)
* S25L+V29W+S38H+W56G+S62N [GP_HC] -> 1.3 nM (6 of 6 replicates)
* S25L+S26M+V29T+E61L [GP_HC] -> 44 nM (6 of 6 replicates)
* W56K+E61N [Ctrl] -> 140 nM (5 of 6 replicates)
* S25L+S33Q+S38N+W56H [GP_Gen] -> 460 pM (6 of 6 replicates)
* S25I+S62H+R99L [Ctrl] -> 7.0 nM (6 of 6 replicates)

The opening 6 entries, copied out:

changes	group	apparent Kd	seen in
S25A+S26E+E32P+W56Q	Ctrl	3.9 nM	6/6
N35F+A57G+R99V+L100M	Ctrl	nd	0/6
S25V+L30P+S33Q+W56N	GP_Gen	500 pM	6/6
Y31M+T59V+R99Y+L100C	Ctrl	66 nM	1/6
S25L+S26M+V29E+W56N+T59Q+E61M	GP_Gen	1.1 nM	6/6
S25V+Q27I+V29Y+Y31L+W56E+S62V	GP_HC	530 pM	6/6

Values reported by Li et al. 2023, doi:10.1038/s41467-023-39022-2 (FLAb copy).